Assay results as given in ChEMBL document CHEMBL5365401, “Discovery of 5-((1H-indazol-3-yl) methylene)-2-thioxoimidazolidin-4-one derivatives as a new class of AHR agonists with anti-psoriasis activity in a mouse model” (Bioorg Med Chem Lett, 2023).

System: Mus musculus
Assay: Anti-psoriatic activity in imiquimod-induced BALB/c mouse model assessed as decrease in psoriasis-like skin lesion at 1 % administered topically
Assay type: functional, organism-based
Conditions: Zone of skin, route top

In the case of `CC(C)c1c(O)cc(/C=C/c2ccccc2)cc1O`, the Activity is reported as “Active”.

Active and inactive are the calls of the source. The rule behind the calls is not given here.
